The numbers were not newly measured in publication PMC9166750, which cites them from elsewhere.

The chains behind the UniProt entries cited, without tags or fusion partners.
UniProt P60880, whole entry: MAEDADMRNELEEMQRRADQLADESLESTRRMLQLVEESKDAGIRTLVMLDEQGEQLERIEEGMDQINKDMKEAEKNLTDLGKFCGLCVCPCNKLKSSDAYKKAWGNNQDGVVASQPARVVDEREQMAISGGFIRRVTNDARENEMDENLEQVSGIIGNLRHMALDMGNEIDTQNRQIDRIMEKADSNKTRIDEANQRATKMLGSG
UniProt Q16623, whole entry: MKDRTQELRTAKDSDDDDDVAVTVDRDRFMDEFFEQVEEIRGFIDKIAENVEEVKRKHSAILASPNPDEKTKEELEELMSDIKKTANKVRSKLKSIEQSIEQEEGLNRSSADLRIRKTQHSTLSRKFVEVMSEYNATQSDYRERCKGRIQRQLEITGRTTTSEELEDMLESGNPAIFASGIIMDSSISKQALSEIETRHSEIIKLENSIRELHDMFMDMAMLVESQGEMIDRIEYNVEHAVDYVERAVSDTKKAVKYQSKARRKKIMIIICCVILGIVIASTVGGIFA

This data set concerns the target SNAP-25 (UniProt P60880). The settings on record: cited from earlier work.

For orientation: Kd means the free concentration of one partner at which half of the binding sites on the other are occupied at equilibrium, for simple one-to-one binding. Consider Syntaxin-1a (from UniProt Q16623), for which the Kd is 126 nM.
